Laboratory results from ChEMBL document CHEMBL1124120, “Mapping of the beta 2-adrenoceptor on Chang liver cells. Differences between high- and low-affinity receptor states” (J Med Chem, 1988).

Chains of the proteins cited; added tags and fusions are not shown.
UniProt Q28044, whole entry, looked up: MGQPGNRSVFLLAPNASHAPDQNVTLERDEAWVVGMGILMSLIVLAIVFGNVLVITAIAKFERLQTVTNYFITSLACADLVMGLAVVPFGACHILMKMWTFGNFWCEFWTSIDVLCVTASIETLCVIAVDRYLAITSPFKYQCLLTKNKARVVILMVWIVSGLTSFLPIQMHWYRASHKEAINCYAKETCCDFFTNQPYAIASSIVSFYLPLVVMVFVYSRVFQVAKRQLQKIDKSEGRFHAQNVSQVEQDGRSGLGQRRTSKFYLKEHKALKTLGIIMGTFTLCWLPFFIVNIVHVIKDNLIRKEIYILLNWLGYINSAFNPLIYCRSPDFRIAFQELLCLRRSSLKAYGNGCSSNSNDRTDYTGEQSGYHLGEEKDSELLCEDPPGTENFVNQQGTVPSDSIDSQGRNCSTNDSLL

Columns and labels:
[1] = target: Beta-2 adrenergic receptor (Homo sapiens) (UniProt P07550)
[2] = target: Beta-2 adrenergic receptor (Bos taurus) (UniProt Q28044); conditions: Muscle tissue
[3] = target: Beta-2 adrenergic receptor (Homo sapiens) (UniProt P07550); remark: listed apart in the source

| SMILES | -Delta G [1] | also measured |
| --- | --- | --- |
| CC(C)(C)NCC(O)c1ccccc1Cl (centres undefined) | 10.8 |  |
| CC(C)NCC(O)c1ccc(O)c(CO)c1 (racemic) |  | -Delta G [2]: 8.23 |
| CC(C)NCC(O)c1cccc(O)c1 (racemic) | 8.57 |  |
| CC(C)NCC(O)c1ccc(O)cc1 (racemic) |  | -Delta G [3]: 8.07 |
